Assay results published in ChEMBL document CHEMBL4831494, “Synthesis and evaluation of FAK inhibitors with a 5-fluoro-7H-pyrrolo[2,3-d]pyrimidine scaffold as anti-hepatocellular carcinoma agents” (Eur J Med Chem, 2021).

By UniProt entry, the sequences of proteins in these tests, tags left out.
UniProt P35968, whole entry: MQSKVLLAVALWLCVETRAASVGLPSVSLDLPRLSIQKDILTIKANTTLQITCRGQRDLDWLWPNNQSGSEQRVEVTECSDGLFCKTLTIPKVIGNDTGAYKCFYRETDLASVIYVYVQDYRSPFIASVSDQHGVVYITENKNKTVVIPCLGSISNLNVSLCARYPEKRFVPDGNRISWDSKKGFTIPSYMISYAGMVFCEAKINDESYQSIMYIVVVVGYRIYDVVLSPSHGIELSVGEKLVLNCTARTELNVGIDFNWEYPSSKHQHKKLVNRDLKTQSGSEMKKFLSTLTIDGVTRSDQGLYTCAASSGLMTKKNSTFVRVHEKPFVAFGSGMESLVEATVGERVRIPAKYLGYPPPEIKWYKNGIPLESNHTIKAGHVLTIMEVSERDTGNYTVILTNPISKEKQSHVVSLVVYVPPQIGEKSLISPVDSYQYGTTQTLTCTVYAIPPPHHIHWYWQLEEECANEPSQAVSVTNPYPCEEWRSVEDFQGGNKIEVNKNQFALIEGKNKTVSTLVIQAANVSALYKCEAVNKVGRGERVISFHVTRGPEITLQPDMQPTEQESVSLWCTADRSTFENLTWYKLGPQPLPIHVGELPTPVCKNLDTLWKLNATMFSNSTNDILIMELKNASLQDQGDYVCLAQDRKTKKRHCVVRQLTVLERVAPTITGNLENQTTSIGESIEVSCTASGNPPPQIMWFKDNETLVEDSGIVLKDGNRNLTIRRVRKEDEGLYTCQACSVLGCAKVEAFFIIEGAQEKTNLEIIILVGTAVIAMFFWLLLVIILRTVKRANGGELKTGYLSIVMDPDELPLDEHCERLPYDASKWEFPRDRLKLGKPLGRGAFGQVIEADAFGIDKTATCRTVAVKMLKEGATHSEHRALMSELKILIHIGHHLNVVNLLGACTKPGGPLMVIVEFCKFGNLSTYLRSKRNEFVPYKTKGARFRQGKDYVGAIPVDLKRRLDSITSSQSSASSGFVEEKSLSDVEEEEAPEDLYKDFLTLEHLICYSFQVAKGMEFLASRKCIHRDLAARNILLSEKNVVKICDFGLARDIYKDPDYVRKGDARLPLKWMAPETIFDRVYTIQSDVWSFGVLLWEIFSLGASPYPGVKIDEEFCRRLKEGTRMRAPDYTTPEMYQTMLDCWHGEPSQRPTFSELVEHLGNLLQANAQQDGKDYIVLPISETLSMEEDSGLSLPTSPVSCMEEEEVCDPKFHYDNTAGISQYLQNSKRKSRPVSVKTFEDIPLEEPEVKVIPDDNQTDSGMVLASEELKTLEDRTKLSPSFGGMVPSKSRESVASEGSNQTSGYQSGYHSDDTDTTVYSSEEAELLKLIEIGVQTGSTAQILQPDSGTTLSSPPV

Tests used:
Assay type in all cases: cell-based
[1] = molecular target: Vascular endothelial growth factor receptor 2 (Homo sapiens) (UniProt P35968); test: Upregulation of VEGFR2 phosphorylation at Tyr951 residue in human HCC cells at 30 uM by KEGG analysis relative to control
[2] = molecular target: Epidermal growth factor receptor (Homo sapiens) (UniProt P00533); test: Upregulation of EGFR phosphorylation at Ser1070 residue in human HCC cells at 30 uM by KEGG analysis relative to control
[3] = molecular target: Vascular endothelial growth factor receptor 2 (Homo sapiens) (UniProt P35968); test: Upregulation of VEGFR2 phosphorylation at Tyr1214 residue in human HCC cells at 30 uM by KEGG analysis relative to control
[4] = molecular target: Epidermal growth factor receptor (Homo sapiens) (UniProt P00533); test: Upregulation of EGFR phosphorylation at Thr693 residue in human HCC cells at 30 uM by KEGG analysis relative to control
[5] = molecular target: Epidermal growth factor receptor (Homo sapiens) (UniProt P00533); test: Upregulation of EGFR phosphorylation at Tyr1172 residue in human HCC cells at 30 uM by KEGG analysis relative to control
[6] = molecular target: Epidermal growth factor receptor (Homo sapiens) (UniProt P00533); test: Upregulation of EGFR phosphorylation at Tyr1197 residue in human HCC cells at 30 uM by KEGG analysis relative to control

For `CNC(=O)c1ccccc1Nc1nc(Nc2cccc(NC(C)=O)c2)nc2[nH]cc(F)c12`, which fold change (FC) [1] is on record?
The fold change (FC) was 2.63.

What about the fold change (FC) [2] of the same molecule?
Its fold change (FC) is 3.94.

And the fold change (FC) [3]?
Its fold change (FC) is 2.67.

What about the fold change (FC) [4] of the same molecule?
Its fold change (FC) is 2.97.

And the fold change (FC) [5]?
Its fold change (FC) is 2.02.

What about the fold change (FC) [6] of the same molecule?
Its fold change (FC) is 2.21.
